In this test the target is T1, ICE (Homo sapiens, UniProt P29466).
T1 construct: expressed in transfected cells; host or cells: COS-7 cells transfected with pSG5-ICE cDNA, or alternatively lysate of freshly isolated human monocytes
T1 sequence (P29466 120-404): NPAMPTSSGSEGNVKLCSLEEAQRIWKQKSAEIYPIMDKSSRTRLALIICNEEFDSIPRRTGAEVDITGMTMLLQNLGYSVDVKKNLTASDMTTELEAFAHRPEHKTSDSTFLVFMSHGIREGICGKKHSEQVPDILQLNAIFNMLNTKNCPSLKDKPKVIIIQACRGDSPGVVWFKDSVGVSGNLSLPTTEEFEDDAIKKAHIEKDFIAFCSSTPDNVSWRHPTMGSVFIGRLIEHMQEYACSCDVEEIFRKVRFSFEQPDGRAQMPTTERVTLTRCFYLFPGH
Briefly: Inhibition of ICE cleavage of pIL-1β, SDS-PAGE and Western blotting. The conditions noted are these: icIL-1raII tested for ability to inhibit ICE activity. Format: biochemical. On the procedure: cDNA coding for human ICE has been amplified by PCR. The sequence was confirmed and the cDNA was subcloned into pSG5 expression vector. COS cells were transfected with empty vector (mock) or vector containing ICE cDNA and after 48 hours, cells were analysed for the expression of ICE specific mRNA.
A monocyte lysate, prepared as previously described (11), was also able to convert pIL-1β into a mature form (FIG. 2). Therefore, recombinant ICE or freshly isolated human monocytes were used as a source of ICE enzymatic activity for further experiments.
A source of ICE activity was prepared and its ability to cleave pIL-1β was tested by incubating the reaction at 37° C. for 1 hour. The mixture was then run on SDS-PAGE and the presence of pIL1-β or the mature form was evidenced by Western Blotting.
(In general: Immunoblotting shows a protein as a band on a membrane.)

B1: icIL-1raII: new molecular form of intracellular IL-1 receptor antagonist, approximately 25 kDa in SDS-PAGE (protein)
chain: MALADLYEEGGGGGGEGEDNADSKETICRPSGRKSSKMQAFRIWDVNQKTFYLRNNQLVAGYLQGPNVNLEEKIDVVPIEPHALFLGIHGGKMCLSCVKSGDETRLQLEAVNITDLSENRKQDKRFAFIRSDSGPTTSFESAACPGWFLCTAMEADQPVSLTNMPDEGVMVTKFYFQEDE
Take B1: the “inhibition of ICE activity” value is “inhibits ICE activity”.

The values are drawn from patent US6380162B1, “Ice inhibiting peptides” (Applied Research Systems ARS Holding N.V., priority 1999, dated 2002).
